Reference: the supplement of paper PMC13380429

Key:
Settings in all cases: 72 h
Caco-2 [1] = experiment: cell viability relative to DMSO; higher = less toxic
Calu-3 [2] = experiment: as above
HepG2 [3] = experiment: as above
U2OS [4] = experiment: as above
Vero E6 [5] = experiment: as above
Caco-2 [6] = experiment: relative viability EC50 (midpoint between 100% and the lowest measured viability); higher = less toxic
Calu-3 [7] = experiment: as above
HepG2 [8] = experiment: as above
U2OS [9] = experiment: as above
Vero E6 [10] = experiment: as above
Caco-2 [11] = experiment: drug sensitivity score (DSS) for viability; higher = more toxic; extreme values may be limits of the assay
Calu-3 [12] = experiment: as above
HepG2 [13] = experiment: as above
U2OS [14] = experiment: as above
Vero E6 [15] = experiment: as above

C[C@@H](N)C(=O)N[C@@H](CO)C(=O)N[C@H](C(=O)N[C@H](C(=O)N[C@H](C(=O)N[C@@H](CC(N)=O)C(=O)N[C@@H](Cc1ccc(O)cc1)C(=O)N[C@H](C(N)=O)[C@@H](C)O)[C@@H](C)O)[C@@H](C)O)[C@@H](C)O [adaptavir]
cell viability [%]
Settings | Caco-2 [1] | Calu-3 [2] | HepG2 [3] | U2OS [4] | Vero E6 [5]
1 nM | 99.6 | 106 | 98.4 | 94.6 | 107
10 nM | 105 | 86.2 | 93.1 | 101 | 98.5
100 nM | 102 | 91.8 | 98.7 | 94.4 | 103
1000 nM | 90.1 | 106 | 91.5 | 97.4 | 102
10000 nM | 102 | 99.1 | 97.3 | 102 | 97.4

Settings | drug sensitivity score | relative viability EC50 [µM]
Caco-2 [6] | – | > 10
Caco-2 [11] | 0 | –
Calu-3 [7] | – | > 10
Calu-3 [12] | 0 | –
HepG2 [8] | – | > 10
HepG2 [13] | 0 | –
U2OS [9] | – | > 10
U2OS [14] | 0 | –
Vero E6 [10] | – | > 10
Vero E6 [15] | 0 | –
